Source: patent publication US9156831B2, “Chemical compounds” (ASTRAZENECA AB, priority 2013, dated 2015)

By UniProt entry, the sequences of proteins in these tests, tags left out.
UniProt P42336, whole entry K111N, looked up: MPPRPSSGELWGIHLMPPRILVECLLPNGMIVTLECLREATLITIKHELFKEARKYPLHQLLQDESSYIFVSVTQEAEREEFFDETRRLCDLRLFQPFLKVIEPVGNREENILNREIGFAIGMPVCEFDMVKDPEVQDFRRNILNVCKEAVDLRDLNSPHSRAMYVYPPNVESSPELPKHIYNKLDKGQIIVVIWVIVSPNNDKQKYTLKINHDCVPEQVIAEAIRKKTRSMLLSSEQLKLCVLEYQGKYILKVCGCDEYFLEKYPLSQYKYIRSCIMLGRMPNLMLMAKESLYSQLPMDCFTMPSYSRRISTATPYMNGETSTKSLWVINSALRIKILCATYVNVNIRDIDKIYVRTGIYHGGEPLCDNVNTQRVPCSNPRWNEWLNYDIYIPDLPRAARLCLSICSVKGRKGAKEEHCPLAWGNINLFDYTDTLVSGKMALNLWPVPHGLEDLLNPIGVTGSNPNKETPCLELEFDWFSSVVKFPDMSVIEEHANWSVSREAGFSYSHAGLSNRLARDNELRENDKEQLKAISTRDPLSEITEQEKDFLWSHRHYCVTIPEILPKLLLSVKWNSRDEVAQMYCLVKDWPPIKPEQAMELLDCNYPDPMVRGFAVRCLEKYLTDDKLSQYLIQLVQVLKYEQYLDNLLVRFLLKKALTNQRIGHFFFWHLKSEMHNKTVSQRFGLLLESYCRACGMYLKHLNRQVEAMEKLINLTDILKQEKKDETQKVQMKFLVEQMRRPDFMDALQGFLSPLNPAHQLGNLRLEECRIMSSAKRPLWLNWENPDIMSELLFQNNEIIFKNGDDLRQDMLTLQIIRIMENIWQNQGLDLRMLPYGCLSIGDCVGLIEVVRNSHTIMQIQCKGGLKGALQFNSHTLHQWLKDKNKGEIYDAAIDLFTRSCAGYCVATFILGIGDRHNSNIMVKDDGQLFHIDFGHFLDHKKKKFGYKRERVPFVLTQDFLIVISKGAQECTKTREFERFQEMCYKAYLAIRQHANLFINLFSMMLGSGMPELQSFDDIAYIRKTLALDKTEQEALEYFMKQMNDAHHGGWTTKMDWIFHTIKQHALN

Target: PI3K-α (Homo sapiens (Human), UniProt P42336, K111N)
Assay: Phosphorylated AKT (Thr308) in BT474 cells (PI3K-α cell assay)
Format: cell-based
Conditions: Test protocol c, mean of replicates

IC50 [nM]	SMILES
530	C[C@H](CO)C(=O)N1CCC(c2nc(-c3cnc(N)c(-c4nnc(C(C)(C)C)o4)n3)n(C)n2)CC1 [Example 6, (2R)-1-[4-[5-[5-amino-6-(5-tert-butyl-1,3,4-oxadiazol-2-yl)pyrazin-2-yl]-1-methyl-1,2,4-triazol-3-yl]-1-piperidyl]-3-hydroxy-2-methyl-propan-1-one]
330	CCn1nc(C2CCN(C(=O)CC(=O)O)CC2)nc1-c1cnc(N)c(-c2nnc(C(C)(C)C)o2)n1 [Example 9, 3-[4-[5-[5-amino-6-(5-tert-butyl-1,3,4-oxadiazol-2-yl)pyrazin-2-yl]-1-ethyl-1,2,4-triazol-3-yl]-1-piperidyl]-3-oxo-propanoic acid]
